This is an account of results in US8389019B2, “Method for improving the quality of meat by reducing boar taint” (priority 2007, dated 2013).

In this data set the test system is testis. In words: Example 2: beagle puppy injected in each testis, testes excised at 30 months. The class given is in vivo, beagle dog. The following applies: 0.25 ml per testis, sacrificed at 30 months; control 30 lbs. On the procedure: A beagle puppy weighing 19 lbs at six months of age was injected in each testis with 0.25 ml of a chemical sterilant containing 13.1 mg/ml of zinc as zinc gluconate neutralized by 34.8 mg/ml of l-arginine with the pH adjusted to 7.0 with hydrochloric acid. The injection was into the dorsal cranial portion of the testis as could best be estimated externally.
The treated animal was sacrificed at 30 months of age when he weighed 31 lbs. The testes were excised and each weighed 3.5 g.
A control beagle weighing 18 lbs at six months was housed with the treated animal. This animal was also sacrificed at 30 months. The control dog weighed 30 lbs and each testis weighed 6.8 g. A histological section of the rete testis of the control animal was taken and a light micrograph of the section at 10× is shown in FIG. 2.

As to zinc gluconate neutralized by arginine, the “body weight at sacrifice” value is 31 lbs.
